Test results from patent US9611251B2, “Substituted piperidine compounds and their use as orexin receptor modulators” (Janssen Pharmaceutica NV, priority 2013, dated 2017).

The chains behind the UniProt entries cited, without tags or fusion partners.
UniProt O43614, whole entry: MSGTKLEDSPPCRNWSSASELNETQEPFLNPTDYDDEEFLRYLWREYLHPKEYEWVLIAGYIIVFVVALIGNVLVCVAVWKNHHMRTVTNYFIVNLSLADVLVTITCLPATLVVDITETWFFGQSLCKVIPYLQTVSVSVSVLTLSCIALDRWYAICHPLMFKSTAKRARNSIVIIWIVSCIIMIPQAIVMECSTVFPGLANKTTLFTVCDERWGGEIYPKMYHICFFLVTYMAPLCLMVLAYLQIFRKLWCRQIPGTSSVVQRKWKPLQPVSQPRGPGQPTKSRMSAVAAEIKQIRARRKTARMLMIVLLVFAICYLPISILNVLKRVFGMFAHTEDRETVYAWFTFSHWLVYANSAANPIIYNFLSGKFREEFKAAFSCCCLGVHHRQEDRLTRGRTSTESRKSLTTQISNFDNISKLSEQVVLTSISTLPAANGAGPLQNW

Experiments:
rat orexin 1 receptor = rat orexin 1 receptor (Rattus norvegicus, UniProt P56718); experiment: Rat orexin 1 receptor radioligand binding; details: averages of 2-20 runs, read-out: rOX1 Ki
Method: (§1) Data are analyzed using pc-Sandy macro and graphed on Graphpad Prism 5. For analysis, each concentration point is averaged from triplicate values and the averaged values are plotted on Graphpad Prism. The IC50 was determined by applying the following equation (GraphPad Prism 5.0, SanDiego) for one site competition where X=log (concentration) and Y=specific binding. Top denotes the total [^3H]-(1-(5-(2-fluoro-phenyl)-2-methyl-thiazol-4-yl)-1-((S)-2-(5-phenyl-(1,3,4)oxadiazol-2-ylmethyl)-pyrrolidin-1-yl)-methanone) binding, bottom denotes the nonspecific [^3H]-(1-(5-(2-fluoro-phenyl)-2-methyl-thiazol-4-yl)-1-((S)-2-(5-phenyl-(1,3,4)oxadiazol-2-ylmethyl)-pyrrolidin-1-yl)-methanone) binding. Graphpad Prism calculates Ki value from IC50 and the pre-determined Kd values for [^3H]-(1-(5-(2-fluoro-phenyl)-2-methyl-thiazol-4-yl)-1-((S)-2-(5-phenyl-(1,3,4)oxadiazol-2-ylmethyl)-pyrrolidin-1-yl)-methanone) and [3H]-EMPA. The Ki for each compound is then uploaded into 3DX. Each run comprises individual compounds in triplicate.
Rat and Human Orexin 1 Receptor Radioligand Binding Studies
After centrifugation (2K×G, 5 min at 4° C.), the supernatant was aspirated and the pellets frozen and stored at −80° C. […] Each cell pellet from a 15 cm plate was resuspended in 10 mL, stored on ice, and homogenized for 45 sec prior to addition to the reactions. Competition binding experiments in 96 well polypropylene plates were performed using [^3H]-(1-(5-(2-fluoro-phenyl)-2-methyl-thiazol-4-yl)-1-((S)-2-(5-phenyl-(1,3,4)oxadiazol-2-ylmethyl)-pyrrolidin-1-yl)-methanone) (Moraveck Corporation, specific activity=35.3 Ci/mmol), diluted to a 10 nM concentration in PBS (4 nM final). […] The final concentration of DMSO in the reactions is equal to or less than 0.1%. Total and nonspecific binding was determined in the absence and presence of 10 μM almorexant. […] Plates were dried in 55° C. oven for 60 min, scintillation fluid was added, and the radioactivity was counted on a Topcount (Packard).

human orexin 2 receptor = human orexin 2 receptor (Homo sapiens (Human), UniProt O43614); experiment: Human orexin 2 receptor radioligand binding ([3H]-EMPA); details: averages of 2-20 runs, read-out: hOX2 Ki
Method: as §1
Human Orexin 2 Receptor Radioligand Binding Studies
HEK293 stably expressing human orexin 2 receptor (Genebank accession number NM_001526) were grown to confluency in DMEM (Hyclone, cat #SH30022), 10% FBS, 1×Pen/Strep, 1× NaPyruvate, 10 mM HEPES, 600 ug/ml G418 media on 150 cm^2 tissue culture plates, washed with 5 mM EDTA in PBS (HyClone Dulbecco's Phosphate Buffered Saline 1× with Calcium and Magnesium, Cat #SH30264.01, hereafter referred to simply as PBS) and scraped into 50 ml tubes. After centrifugation (2K×G, 5 min at 4° C.), the supernatant was aspirated and the pellets frozen and stored at −80° C. […] Each cell pellet from a 15 cm plate was resuspended in 10 mL, stored on ice, and homogenized for 45 sec just prior to addition to the reactions. […] Total and nonspecific binding was determined in the absence and presence of 10 μM almorexant. […] Plates were dried in 55° C. oven for 60 min, scintillation fluid was added, and the radioactivity was counted on a Topcount (Packard).

human orexin 1 receptor = human orexin 1 receptor (Homo sapiens, UniProt O43613); experiment: Human orexin 1 receptor radioligand binding; details: averages of 2-20 runs, read-out: hOX1 Ki
Method: The in vitro affinity of the compounds of the invention for the rat/human orexin 1 and human orexin 2 receptors was determined by competitive radioligand binding using [^3H](1-(5-(2-fluoro-phenyl)-2-methyl-thiazol-4-yl)-1-((S)-2-(5-phenyl-(1,3,4)oxadiazol-2-ylmethyl)-pyrrolidin-1-yl)-methanone) (Langmead et al., 2004) and [^3H]EMPA (n-ethyl-2[96-methoxypyridin-3-yl)-(toluene-2-sulfonyl)-amino]-N-pyridin-3-ylmethyl acetamide), respectively (Langmead et al., 2004, British Journal of Pharmacology 141:340-346; Malherbe et al., 2004, British Journal of Pharmacology 156:1326-41).
Data are analyzed using pc-Sandy macro and graphed on Graphpad Prism 5. For analysis, each concentration point is averaged from triplicate values and the averaged values are plotted on Graphpad Prism. The IC50 was determined by applying the following equation (GraphPad Prism 5.0, SanDiego) for one site competition where X=log (concentration) and Y=specific binding. […] Graphpad Prism calculates Ki value from IC50 and the pre-determined Kd values for [^3H]-(1-(5-(2-fluoro-phenyl)-2-methyl-thiazol-4-yl)-1-((S)-2-(5-phenyl-(1,3,4)oxadiazol-2-ylmethyl)-pyrrolidin-1-yl)-methanone) and [3H]-EMPA. […]
Human Embryonic Kidney 293 cells (HEK293) stably expressing rat orexin 1 receptor (Genebank accession number NM_001525) or Chinese ovary cells (CHO) stably expressing human orexin 1 receptor (Genebank accession number NM_001526) were grown to confluency in DMEM (Hyclone, cat #SH30022), 10% FBS, 1×Pen/Strep, 1× sodium pyruvate, 10 mM HEPES, 600 μg/mL G418 and DMEM/F12 (Gibco, Cat #11039), 10% FBS, 1×Pen/Strep, 600 μg/mL G418 media, respectively on 150 cm^2 tissue culture plates, washed with 5 mM EDTA in PBS (HyClone Dulbecco's Phosphate Buffered Saline 1× with Calcium and Magnesium, Cat #SH30264.01, hereafter referred to simply as PBS) and scraped into 50 ml tubes. […] Total and nonspecific binding was determined in the absence and presence of 10 μM almorexant. […]

| Ki (rat orexin 1 receptor) [nM] | Ki (human orexin 2 receptor) [nM] | Ki (human orexin 1 receptor) [nM] | Structure (SMILES) |
| --- | --- | --- | --- |
| 16 | 437 | 16 | C[C@H]1[C@H](Nc2ccc(C(F)(F)F)cn2)CCCN1C(=O)c1ccccc1-n1nccn1 (racemic) [Example 12, (±)-trans-(2-(2H-1,2,3-triazol-2-yl)phenyl)(2-methyl-3-((5-(trifluoromethyl)pyridin-2-yl)amino)piperidin-1-yl)methanone] |
| – | 2500 | – | Cc1cnc(C(=O)N2CCC[C@@H](N(C)c3nc4ccccc4o3)[C@@H]2C)c(-n2nccn2)c1 (relative stereo) [Example 187, ((2S*,3R*)-3-(benzo[d]oxazol-2-yl(methyl)amino)-2-methylpiperidin-1-yl)(5-methyl-3-(2H-1,2,3-triazol-2-yl)pyridin-2-yl)methanone] |
| – | 755 | – | C[C@H]1[C@H](Nc2ccc(C(F)(F)F)cn2)CCCN1C(=O)c1ccc(F)cc1-c1ncco1 (relative stereo) [Example 203, (4-fluoro-2-(oxazol-2-yl)phenyl)((2S*,3R*)-2-methyl-3-((5-(trifluoromethyl)pyridin-2-yl)amino)piperidin-1-yl)methanone] |
| 6 | – | 9 | C[C@H]1[C@H](Nc2ccc(Cl)cn2)CCCN1C(=O)c1ccccc1-n1nccn1 [Example 100, (2-(2H-1,2,3-triazol-2-yl)phenyl)((2S,3R)-3-((5-chloropyridin-2-yl)amino)-2-methylpiperidin-1-yl)methanone] |
| 9 | – | 7 | Cc1ccc(-n2nccn2)c(C(=O)N2CCC[C@@H](Oc3ccc(C(F)(F)F)cn3)[C@@H]2C)n1 [Example 108, ((2S,3R)-2-methyl-3-((5-(trifluoromethyl)pyridin-2-yl)oxy)piperidin-1-yl)(6-methyl-3-(2H-1,2,3-triazol-2-yl)pyridin-2-yl)methanone] |
